# Test results from publication PMC6271500, “Bowman-Birk Protease Inhibitor from Vigna unguiculata Seeds Enhances the Action of Bradykinin-Related Peptides” (Molecules, 2014).
# System: trypsin
# Test: Pretreatment of peptides with trypsin
# Type: in vitro ADME
substance,measurement,setting,value
[Val]^1[Thr]^6-bradykinyl-Gln-Ser [Bk2],product released by trypsin pretreatment in vitro,"HPLC and mass spectrometry, data not shown",release the active Bk fragment
same,cleavage by trypsin (site),pretreatment with trypsin,Arg^9-Gln^10
